Experiments:
[1] = molecular target: T1, BECRLR (bovine calcitonin receptor-like receptor) (Bos taurus, UniProt A6QP74); test: Inhibition of ADM-activated adenylyl cyclase activity (antagonism) in BECRLR-293 membranes; format: biochemical; details: BECRLR #8
T1 construct: amplify the open reading frame of the novel bovine CRLR cDNA; expressed in transfected cells; also transient transfection
Protocol: (§1) Cells from BECRLR-293 were scraped into ice-cold PBS and centrifuged for 10 min at 1000× g at 4° C. The pellet was resuspended in 10 mM Tris-HCl, pH 7.4, 10 mM Na-EDTA and homogenized using a Dounce ground glass homogenizer. The homogenate was centrifuged for 20 min at 12,000× g at 4° C. and the resultant membrane pellet was resuspended in 50 mM Tris-HCl, pH 7.4, 10 mM MgCl2 and recentrifuged. The final pellet was resuspended in 50 mM Tris-HCl, pH 7.4, 10 mM MgCl2 and assayed immediately.
Membrane-bound adenylyl cyclase activity was determined. […] [^32 P]cAMP was separated using sequential chromatography as the rate of conversion of [(α^32 P]ATP to [^32 P]cAMP on Dowex and alumina columns (33). Adenylyl cyclase activities were determined in the absence (basal) or presence of various concentrations of rat ADM or hαCGRP (1 pM to 1 μM). The effect of ADM (22-52), ADM (26-52) and hαCGRP(8-37), on ADM-mediatedactivation of adenylyl cyclase was also determined.
(§2) HEK293 cells transiently transfected with this clone responded to CGRP and ADM […] by stimulating adenylyl cyclase activity (60-80% over basal). This clone has been stably expressed in HEK293 cells using the LipofectAMINE procedure and analyzed for CGRP and ADM-mediated adenylyl cyclase activity. […]

Sequences of proteins named here, by UniProt entry; tags and fusion partners are left off. Residues count along the entry.
UniProt A6QP74, 23-462: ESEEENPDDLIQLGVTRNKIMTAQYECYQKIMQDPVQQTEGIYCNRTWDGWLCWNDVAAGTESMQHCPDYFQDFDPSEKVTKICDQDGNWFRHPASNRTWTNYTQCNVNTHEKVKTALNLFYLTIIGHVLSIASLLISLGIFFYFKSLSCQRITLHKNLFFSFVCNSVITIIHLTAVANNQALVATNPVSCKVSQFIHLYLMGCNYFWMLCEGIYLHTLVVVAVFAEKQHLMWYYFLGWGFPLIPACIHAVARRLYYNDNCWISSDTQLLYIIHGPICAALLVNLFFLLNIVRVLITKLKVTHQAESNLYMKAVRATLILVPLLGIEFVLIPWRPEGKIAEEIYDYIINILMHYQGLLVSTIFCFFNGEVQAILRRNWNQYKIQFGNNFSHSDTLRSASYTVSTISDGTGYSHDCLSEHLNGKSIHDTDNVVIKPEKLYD

[2] = molecular target: T1, BECRLR (bovine calcitonin receptor-like receptor); test: Competition binding, displacement of [125I] rADM from BECRLR membranes; details: [125I] rADM displacement, BE-CRLR membranes
Protocol: as §1
Saturation binding experiments were carried out using membranes prepared from BECRLR-293 cells pretreated in the absence or presence of ADM. The incubation mixture contained various concentrations of [^125 I] ADM (5 to 120 pM) and 40-60 μg of membrane protein in a final volume of 500 ul. Nonspecific binding was determined in the presence of 1 μM r ADM. After incubating for 30 min at 25° C., the reaction mixture was rapidly diluted with cold 0.9% NaCl and bound and free ligands were separated by filtration on glass fiber filters. […]
as §2

## CGRP (8-37)
[1]
  IC50: 2200 nM
[2]
  displacement of [125I] rADM binding, potency in words: less potent

From patent US6074845A (priority 1999, dated 2000)
